Consider 1 compound from patent publication US9611261B2, “Perfluorinated cyclopropyl fused 1,3-oxazin-2-amine compounds as beta-secretase inhibitors and methods of use” (AMGEN INC., priority 2013, dated 2017).

Molecules are shown by their SMILES.

This experiment has as its system Abeta 40 in cerebrospinal fluid and brain. In words: In vivo inhibition of beta-secretase: Abeta 40 reduction in CSF and brain of the rat. The conditions noted are these: after 4 hrs.

On to `N#Cc1ccc(C(=O)Nc2cc(F)c(F)c([C@@]3(C(F)F)N=C(N)O[C@@H]4C[C@@H]43)c2)nc1` [Example 113, N-(3-((1R,5S,6R)-3-amino-5-(difluoromethyl)-2-oxa-4-azabicyclo[4.1.0]hept-3-en-5-yl)-4,5-difluorophenyl)-5-cyanopicolinamide], for which the “% reduction of rat CSF levels at 10 pmk” value (Abeta 40, rat CSF, 10 mpk) is on record as 65%. Besides, the “% reduction of rat brain levels at 10 mpk” value (Abeta 40, rat brain) is recorded as 58%.
